Measurements published in ChEMBL document CHEMBL3877330, “Synthesis and Antitumor Activity Evaluation of a Novel Combi-nitrosourea Prodrug: BGCNU” (ACS Med Chem Lett, 2017).

Columns and labels:
Assay type in all cases: cell-based
[1] = target: T1, Methylated-DNA--protein-cysteine methyltransferase (Homo sapiens) (UniProt P16455); assay: Inhibition of AGT in human SF763 cells assessed as increase in dG-dC crosslinking at 0.1 mM incubated for 12 hrs by HPLC-ESI-MS/MS analysis relative to BCNU
T1 sequence (whole entry): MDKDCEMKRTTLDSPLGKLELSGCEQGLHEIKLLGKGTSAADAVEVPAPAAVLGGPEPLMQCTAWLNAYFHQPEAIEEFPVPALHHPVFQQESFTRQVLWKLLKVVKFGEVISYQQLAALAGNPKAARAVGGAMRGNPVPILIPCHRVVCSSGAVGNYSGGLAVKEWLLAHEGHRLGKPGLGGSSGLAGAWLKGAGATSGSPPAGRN

[2] = target: T1, Methylated-DNA--protein-cysteine methyltransferase (Homo sapiens); assay: Inhibition of AGT in human SF763 cells assessed as increase in dG-dC crosslinking at 0.2 mM incubated for 12 hrs by HPLC-ESI-MS/MS analysis relative to BCNU
[3] = target: T1, Methylated-DNA--protein-cysteine methyltransferase (Homo sapiens); assay: Inhibition of AGT in human SF763 cells assessed as increase in dG-dC crosslinking at 0.4 mM incubated for 12 hrs by HPLC-ESI-MS/MS analysis relative to BCNU
[4] = target: T1, Methylated-DNA--protein-cysteine methyltransferase (Homo sapiens); assay: Inhibition of AGT in human SF763 cells assessed as increase in dG-dC crosslinking at 0.6 mM incubated for 12 hrs by HPLC-ESI-MS/MS analysis relative to BCNU
[5] = target: T1, Methylated-DNA--protein-cysteine methyltransferase (Homo sapiens); assay: Inhibition of AGT in human SF763 cells assessed as increase in dG-dC crosslinking at 0.1 mM incubated for 12 hrs by HPLC-ESI-MS/MS analysis relative to ACNU
[6] = target: T1, Methylated-DNA--protein-cysteine methyltransferase (Homo sapiens); assay: Inhibition of AGT in human SF763 cells assessed as increase in dG-dC crosslinking at 0.2 mM incubated for 12 hrs by HPLC-ESI-MS/MS analysis relative to ACNU
[7] = target: T1, Methylated-DNA--protein-cysteine methyltransferase (Homo sapiens); assay: Inhibition of AGT in human SF763 cells assessed as increase in dG-dC crosslinking at 0.4 mM incubated for 12 hrs by HPLC-ESI-MS/MS analysis relative to ACNU
[8] = target: T1, Methylated-DNA--protein-cysteine methyltransferase (Homo sapiens); assay: Inhibition of AGT in human SF763 cells assessed as increase in dG-dC crosslinking at 0.6 mM incubated for 12 hrs by HPLC-ESI-MS/MS analysis relative to ACNU
[9] = target: T1, Methylated-DNA--protein-cysteine methyltransferase (Homo sapiens); assay: Inhibition of AGT in human SF767 cells assessed as increase in dG-dC crosslinking at 0.1 to 0.6 mM incubated for 12 hrs by HPLC-ESI-MS/MS analysis relative to BCNU
[10] = target: T1, Methylated-DNA--protein-cysteine methyltransferase (Homo sapiens); assay: Inhibition of AGT in human SF767 cells assessed as increase in dG-dC crosslinking at 0.1 to 0.6 mM incubated for 12 hrs by HPLC-ESI-MS/MS analysis relative to ACNU
[11] = tested on: SF-126; assay: Binding affinity to DNA in AGT-deficient human SF126 cells assessed as increase in dG-dC crosslinking at 0.1 to 0.6 mM incubated for 12 hrs by HPLC-ESI-MS/MS analysis relative to BCNU
[12] = tested on: SF-126; assay: Binding affinity to DNA in AGT-deficient human SF126 cells assessed as increase in dG-dC crosslinking at 0.1 to 0.6 mM incubated for 12 hrs by HPLC-ESI-MS/MS analysis relative to ACNU

fold change (FC) [1]: 43 | fold change (FC) [2]: 38 | fold change (FC) [3]: 28 | fold change (FC) [4]: 19 | fold change (FC) [5]: 23 | fold change (FC) [6]: 20 | fold change (FC) [7]: 20 | fold change (FC) [8]: 13 | fold change (FC) [9]: 7 to 14 | fold change (FC) [10]: 5 to 11
Structure (SMILES): Nc1nc(OCc2ccccc2)c2ncn(CCNC(=O)N(CCCl)N=O)c2n1
fold change (FC) [11]: 3 to 9 | fold change (FC) [12]: 2 to 6
